Values quoted from earlier work, collected in patent US10954506B2 (priority 2013, dated 2021).

Conditions: in vivo

2-pyridine aldoxime methyl chloride [2-PAM]
elimination t 1/2 from blood to urine: 60 min
